From PMC11312515, “Biochemical and Structural Characterization of a Novel Psychrophilic Laccase (Multicopper Oxidase) Discovered from Oenococcus oeni 229 (ENOLAB 4002)” (International Journal of Molecular Sciences, 2024)

Substrate: CCn1c(=NN=c2sc3cc(S(=O)(=O)O)ccc3n2CC)sc2cc(S(=O)(=O)O)ccc21
Test: purified protein
Conditions: McIlvaine buffer pH 2.5, 24 °C, sigmoidal kinetics

B1: LcOe 229 (Oenococcus oeni PSU-1) (protein)
chain: MELIKNYFFDEGAYDYHDGAYKHLIRPKTKTHKLIIPKVLKADKIEGNTTYYTIHAQEGETNILDGKATHTWGYNGSLLGPLIRYQSGRHYHLTLVNDLPEVTTWHWHGLNIPGPIEDGGPHAPVLPGKSREIEFDVNQPTMTAWLHPHPCPHTAEQVWKGLAAPVAVVNPLDDLPQLPHTWGVDDIPLIFQDRTFHDSQWDYQADYDMDGTLGDTALVNGTVNAEFTVTRPCLRLRVLNGANRRELRLNSDQNIVMTQIASDGGFLPHAVEMTKIMLTNAERAEILLDFSDYKKGGRIVLKADDVPILTLKVGEFTEDNRRQLPKTLKQIERDFTGSPSHQVIMEGMDDSVRINGKLYDMTRIDDRQEIGKNEIWDVSNTNDSMPGMGMIHPFHMHGTEFLVLSRNGKKPYPNEFGFKDTVAVNPGEHVKLLVKFNVPGIFMYHCHILEHEDTGMMAQIEAVDPNNPQHWNLKDLCDKNMPDSNMRM
notes: full length, 488 residues, 55544 Da, in pET-28a(+) NheI/BamHI, N-terminal His tag (thrombin-cleavable; cleavage told for crystallography), E. coli BL21(DE3)/pGro7; Ni-NTA; monomer; PCR fragment given as 1641 bp
K0.5: 0.07 (±0.00) mM
Vmax: 12.1 µmol/min/mg
kcat: 11.2 s⁻¹
kcat/Km: 162000 M⁻¹ s⁻¹
